The values that follow come from patent US20210284958A1, “CULTURE MEDIUM FOR ASSISTED REPRODUCTIVE TECHNOLOGY” (priority 2018, published 2021).

The test system of this test is sperms and ovum-cumulus cell complexes (COCs) of C57BU/6N mice. The test can be described thus: In vitro fertilization test (sperm preculture and insemination in albumin-containing HTF medium). The settings on record: Test example 2; 0.5 w/v % albumin in HTF medium; caprylic acid removed or re-added; FIGS. 1 and 2. It is filed as cell-based. As to the method:
Those solutions were diluted with HTF medium to give 0.5 w/v % of albumin concentration. 200 μL of the resulting media were overlaid with mineral oil and allowed to equilibrate overnight at 37° C. under 6 v/v % CO2. The resulting media were used for sperm preculture and in vitro fertilization. […]/6N male mice (Japan SLC) were sacrificed and the cauda epididymides were excised. Sperm masses obtained by incising the ductus epididymis of the middle of the cauda epididymis were collected in 200 μL of HTF medium containing 0.1 w/v % polyvinyl alcohol (PVA) under mineral oil. The collected sperm masses were incubated at 37° C. under 6 v/v % CO2 for 10 minutes to disperse homogeneously. The sperms obtained in the above 2.2 were added into the medium prepared in the above 2.1 to give 2×10^6 sperms/mL and incubated at 37° C. under 6 v/v % CO2 for 1 hour until in vitro fertilization. […] After insemination at 37° C. under 6 v/v % CO2 for 6 hours, ova in which the second polar body and the male and female pronuclei were observed were determined as fertilized ova, and the fertilization rate was calculated by the following equation.

With “Example 1: HSA treated with the ion-exchange resin, caprylic acid removed; 5 w/v % albumin solution (pH 7.4)”, the “in vitro fertilization rate” value is “superior to the albumin of Comparative Examples 1 and 2”.

Take “Example 2: rHA treated with the ion-exchange resin, caprylic acid removed; 5 w/v % albumin solution (pH 7.4)”: the “in vitro fertilization rate” value is “superior to the albumin of Comparative Examples 1 and 2”.
